Experimental data: PMC5059489, “Mechanistic evaluation and transcriptional signature of a glutathione S-transferase omega 1 inhibitor” (Nature Communications, 2016)

Sequences of proteins named here, by UniProt entry; tags and fusion partners are left off.
UniProt P78417, whole entry: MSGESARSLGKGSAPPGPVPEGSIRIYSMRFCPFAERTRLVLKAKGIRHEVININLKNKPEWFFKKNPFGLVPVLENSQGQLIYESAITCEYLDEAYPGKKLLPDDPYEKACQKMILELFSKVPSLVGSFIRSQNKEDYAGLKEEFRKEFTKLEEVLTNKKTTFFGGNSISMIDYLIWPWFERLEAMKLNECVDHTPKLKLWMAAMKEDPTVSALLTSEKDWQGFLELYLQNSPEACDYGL

Key:
[1] = biological target: T1, recombinant GSTO1 (Homo sapiens, UniProt P78417); assay: In-gel fluorescence competitive CMFDA binding assay, recombinant GSTO1; details: inhibition of CMFDA binding
[2] = system: HCT116p53+/+ cell; assay: MTT cell proliferation at single concentration; assay type: cell-based, human
[3] = biological target: endogenous GSTO1 (Homo sapiens, UniProt P78417); assay: In-gel fluorescence competitive CMFDA binding assay, endogenous GSTO1 in HCT116; details: inhibition of CMFDA binding
[4] = biological target: T1, recombinant GSTO1; assay: GSTO1 substrate assay (reduction of 4-NPG)

GSTO binding assay (% Inhibition at 10 µM) Recombinant [1]: 56.6%
GSTO binding assay (% Inhibition at 10 µM) Endogenous [3]: 63.0%
GSTO substrate assay % Inhibition at 10 µM ([4]; 10 µM): 89.8%
IC50 ([4]; read-out: GSTO substrate assay IC50, cluster screening tables): 4.79 µM
SMILES: O=C(CCl)Nc1cccc(-c2nnc3n2CCCCC3)c1
% Inhibition of HCT116p53+/+ cell proliferation at 10 µM [2]: 36.5%
